# Results taken from PubChem BioAssay AID760 (NMMLSC, 2007).
# Only a part is listed here, and it is no random draw. Some of these compounds have results that are not shown, active ones among them. Activity calls are given as the source filed them.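 The calls were made as follows: active = GTP binding activity at least 20 points away from 100%, either lowered or raised; inconclusive = signal likely due to the compound's own green fluorescence; inactive = the rest.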
# Target: Ras-related protein Rab-2A (Canis lupus familiaris) (UniProt P61105)
# Test: modulators of GTP binding to Rab2A wildtype, primary screen, biochemical, dog, bead-based flow cytometry, multiplex (AID 760);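 also: 0% = beads with excess unlabeled GTP and 100% = no-compound control corrected for plate trend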
# Details: GST-Rab2 wt beads, Bodipy-GTP binding, at 10 µM
row,Compound,GTP binding activity
1,CN(C)c1cccc(C(=O)NCC2(N(C)C)CCCCC2)c1,inactive: 104%
2,O=C(OC1CN2CCC1CC2)C(CO)(c1ccccc1)c1ccccc1 (centres undefined),inactive: 99%
3,COc1cccc(C(=O)NCC2(N3CCCCC3)CCCCC2)c1,inactive: 100%
4,C=CCN1CCN(CCOC(=O)C(O)(c2ccccc2)c2ccccc2)CC1,inactive: 96%
5,CCN1CCCC(OC(=O)C2(O)c3ccccc3C=Cc3ccccc32)C1 (centres undefined),inactive: 100%
6,CN(C)C1CCCC1OC(=O)C(O)(c1ccccc1)c1ccccc1 (centres undefined),inactive: 99%
7,Cc1ccccc1C(=O)NCC1(N2CCCCC2)CCCCC1,inactive: 100%
8,CC(C)N1C(=O)CC2(CCN(CCOC(=O)C(O)(c3ccccc3)c3ccccc3)CC2)C1=O,inactive: 101%
9,O=C(NCC1(N2CCCCC2)CCCCC1)c1cc([N+](=O)[O-])ccc1Cl,inactive: 95%
